Laboratory results taken from article PMC11005446 (European journal of pharmaceutical sciences : official …, 2021).
Read-outs that look alike come from different tables or passages of the source.

Columns and labels:
[1] = system: OATP1B1; details: cited from earlier work
[2] = system: OATP1B1 and OATP1B3; details: Hepatocytes, substrate rosuvastatin; R-value model
[3] = OATP1B1-expressing cell line, substrate rosuvastatin, ref Farasyn et al., 2019

Row | SMILES | Co-Incubation R [1, 3] | Pre+Co-Incubation R [1] | Co-Incubation R [2] | Pre+Co-Incubation R [1, 3]
1 | CO[C@H]1C[C@@H]2CC[C@@H](C)[C@@](O)(O2)C(=O)C(=O)N2CCCC[C@H]2C(=O)O[C@H]([C@H](C)C[C@@H]2CC[C@@H](OCCO)[C@H](OC)C2)CC(=O)[C@H](C)/C=C(\C)[C@@H](O)[C@@H](OC)C(=O)[C@H](C)C[C@H](C)/C=C/C=C/C=C/1C [EVR, everolimus] | 1.03 (1.02–1.09) | 1.23 (1.10–1.42) | 1.02 (1.02–1.03) | 
2 | CO[C@H]1C[C@@H]2CC[C@@H](C)[C@@](O)(O2)C(=O)C(=O)N2CCCC[C@H]2C(=O)O[C@H]([C@H](C)C[C@@H]2CC[C@@H](O)[C@H](OC)C2)CC(=O)[C@H](C)/C=C(\C)[C@@H](O)[C@@H](OC)C(=O)[C@H](C)C[C@H](C)/C=C/C=C/C=C/1C [SIR, sirolimus] |  |  |  | 1.01 (1.01–1.03)
